Several values for one entry are separate records, joined by “and”; a condition that tells them apart may be missing. Equal entries are not always repeated.
Target: Recombinant human FcRn (FcRn alpha and beta2-microglobulin) (human) (UniProt P55899)
Assay: SPR

By UniProt entry, the sequences of proteins in these tests, tags left out. Residues count along the entry.
UniProt P55899, 24-290, chain 1 of 2: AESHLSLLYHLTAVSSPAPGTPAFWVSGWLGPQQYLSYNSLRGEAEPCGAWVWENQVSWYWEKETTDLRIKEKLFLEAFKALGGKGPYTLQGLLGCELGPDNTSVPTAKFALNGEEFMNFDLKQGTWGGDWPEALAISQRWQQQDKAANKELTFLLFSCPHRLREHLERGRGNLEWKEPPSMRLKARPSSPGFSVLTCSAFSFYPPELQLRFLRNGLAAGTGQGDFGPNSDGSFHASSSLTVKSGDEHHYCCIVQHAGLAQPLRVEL

- Kd: 133 nM and 425 nM
Substance: wild-type recombinant Fc fragment (human IgG1 Fc, aa 221-447) (from UniProt P01857 104-330)
